Activity calls are given as the source filed them. The calls are words filed in the database; no cut-off is given here.
System: Mus musculus
Test: Antagonist activity at ORL1 receptor in CD1 (ICR) mouse assessed as reversal of WO03/10168-induced locomotor activity at 10 mg/kg, sc administered 30 mins prior to WO03/10168 challenge

## CCn1c(=O)n([C@@H]2CCN(CC3CCCC34CCCC4)C[C@H]2CO)c2ccccc21 (some centres not stated)
  Activity: inactive

## CCn1c(=O)n([C@@H]2CCN(CC3CCCCC3(C)C)C[C@H]2CO)c2ccccc21 (some centres not stated)
  Activity: inactive

## O=c1n(C(CO)CO)c2ccccc2n1C1CCN(C[C@H]2[C@H]3CC[C@H](C3)C23CC3)CC1
  Activity: inactive

## CCn1c(=O)n([C@@H]2CCN(CC3CCCC3)C[C@H]2CO)c2ccccc21
  Activity: inactive

## CCn1c(=O)n([C@@H]2CCN(CC3CCCC3(C)C)C[C@H]2CO)c2ccccc21 (some centres not stated)
  Activity: inactive

## CCn1c(=O)n([C@@H]2CCN(CC3CCCCC34CCCC4)C[C@H]2CO)c2ccccc21 (some centres not stated)
  Activity: inactive

## CCn1c(=O)n([C@@H]2CCN(CC3CCCC34CCC4)C[C@H]2CO)c2ccccc21 (some centres not stated)
  Activity: inactive

## CCn1c(=O)n([C@@H]2CCN(CC3CCCCC34CCC4)C[C@H]2CO)c2ccccc21 (some centres not stated)
  Activity: inactive

## CCn1c(=O)n([C@@H]2CCN(CC3CCCCCCCC3)C[C@H]2CO)c2ccccc21
  Activity: inactive

## CCn1c(=O)n([C@@H]2CCN(CC3CCCCC34CCCCC4)C[C@H]2CO)c2ccccc21 (some centres not stated)
  Activity: inactive

## CCn1c(=O)n([C@@H]2CCN(CC3CCCC34CCCCC4)C[C@H]2CO)c2ccccc21 (some centres not stated)
  Activity: inactive

## CCn1c(=O)n([C@@H]2CCN(CCC3(C)CCCC3)C[C@H]2CO)c2ccccc21
  Activity: inactive

## O=c1n(C[C@@H](O)CO)c2ccccc2n1C1CCN(C[C@H]2[C@H]3CC[C@H](C3)C23CC3)CC1
  Activity: inactive

## CCn1c(=O)n([C@@H]2CCN(C[C@@H]3C[C@@H]4CC[C@H]3C4)C[C@H]2CO)c2ccccc21
  Activity: inactive

## CCn1c(=O)n([C@@H]2CCN(CC3CCCCC3)C[C@H]2CO)c2ccccc21
  Activity: inactive

## CCn1c(=O)n([C@@H]2CCN(CC3CCCCCC3)C[C@H]2CO)c2ccccc21
  Activity: inactive

## CCn1c(=O)n([C@@H]2CCN(CC3CCCCCCCCC3)C[C@H]2CO)c2ccccc21
  Activity: inactive

## O=c1n(C[C@H](O)CO)c2ccccc2n1C1CCN(C[C@H]2[C@H]3CC[C@H](C3)C23CC3)CC1
  Activity: inactive

## CCn1c(=O)n([C@@H]2CCN(C[C@H]3[C@H]4CC[C@H](C4)C3(C)C)C[C@H]2CO)c2ccccc21
  Activity: inactive

## CCn1c(=O)n([C@@H]2CCN(CC3CCCCC34CC4)C[C@H]2CO)c2ccccc21 (some centres not stated)
  Activity: inactive

## CCn1c(=O)n([C@@H]2CCN(CCC(C)(C)C)C[C@H]2CO)c2ccccc21
  Activity: inactive

## CCn1c(=O)n([C@@H]2CCN(CC3CCCC34CC4)C[C@H]2CO)c2ccccc21 (some centres not stated)
  Activity: inactive

— ChEMBL document CHEMBL1158463 (J Med Chem, 2009)
